Values quoted from earlier work in patent US20180016259A1, “QUINAZOLINE INHIBITORS OF ACTIVATING MUTANT FORMS OF EPIDERMAL GROWTH FACTOR RECEPTOR” (AstraZeneca AB, priority 2013, published 2018).

Details: literature reports; cited from earlier work

Structure (SMILES): C#Cc1cccc(Nc2ncnc3cc(OCCOC)c(OCCOC)cc23)c1 [erlotinib]
- adverse effects, such as skin rash and diarrhoea, share of NSCLC patients treated: > 60%
